Measured values from patent publication US20120065365A1, “Stable Radiopharmaceutical Compositions and Methods for Their Preparation” (BRACCO IMAGING S.P.A., priority 2003, published 2012).

Test: Radiostability (RCP, Met═O by HPLC) of preformed ^177Lu-A with individual amino acids added (Example 1)
Format: physicochemical
Settings: methionine oxidized form of ^177Lu-A, room temperature; for 0-1 h Met═O (%): amino acid 6.6 mg/mL added to ^177Lu-A ~20 mCi/mL (3.5 mCi total); for 24-h Met═O (%) / 48-h Met═O (%): amino acid 6.6 mg/mL, ~20 mCi/mL

0-1 h Met═O (%)	24-h Met═O (%)	48-h Met═O (%)	Compound
7.5%	44%	29.5%	N[C@@H](Cc1c[nH]cn1)C(=O)O [Histidine, L-Histidine]
0%	0.9%	0.1%	C[Se]CC[C@H](N)C(=O)O [L-Selenomethionine]
4.5%	46.8%	81.8%	N[C@@H](Cc1c[nH]c2ccccc12)C(=O)O [Tryptophan, L-Tryptophan]
